The text below walks through data of patent publication US7115624B1, “Method of inhibiting protein tyrosine phosphatase 1B and/or T-cell protein tyrosine phosphatase 4 and/or other PTPases with an Asp residue at position 48” (Novo Nordisk A/S, priority 1999, dated 2006).

By UniProt entry, the sequences of proteins in these tests, tags left out. Residues count along the entry.
UniProt P23467, 1703-1963 limits assumed: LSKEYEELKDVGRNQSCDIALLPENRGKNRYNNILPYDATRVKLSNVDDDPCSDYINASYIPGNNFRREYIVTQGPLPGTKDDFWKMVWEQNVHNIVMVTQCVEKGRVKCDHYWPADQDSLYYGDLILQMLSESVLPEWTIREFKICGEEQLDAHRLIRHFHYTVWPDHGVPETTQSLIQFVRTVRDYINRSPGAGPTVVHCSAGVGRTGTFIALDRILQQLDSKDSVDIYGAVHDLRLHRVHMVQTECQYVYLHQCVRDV

Several values for one entry are separate records, joined by “and”; a condition that tells them apart may be missing. Equal entries are not always repeated.

Holding throughout (experiment): PTPase inhibition, p-nitrophenyl phosphate substrate, Ki
Holding throughout (assay type): biochemical

For one experiment, the target named is T1, PTP1B (Homo sapiens, UniProt P18031).
T1 sequence (P18031 1-321): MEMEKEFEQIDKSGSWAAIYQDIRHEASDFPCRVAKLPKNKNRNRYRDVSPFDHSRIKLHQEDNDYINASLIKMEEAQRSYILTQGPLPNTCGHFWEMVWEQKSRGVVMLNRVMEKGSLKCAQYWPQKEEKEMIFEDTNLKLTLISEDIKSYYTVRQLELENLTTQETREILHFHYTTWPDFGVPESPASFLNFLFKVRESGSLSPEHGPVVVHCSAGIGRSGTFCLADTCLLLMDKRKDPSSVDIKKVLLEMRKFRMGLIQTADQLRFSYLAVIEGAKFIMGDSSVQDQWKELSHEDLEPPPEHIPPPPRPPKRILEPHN

A further experiment has as its target PTPβ (Homo sapiens, UniProt P23467).
The target of another experiment is T2, CD45 (Homo sapiens, UniProt P08575).
T2 sequence (P08575 599-1306 limits assumed): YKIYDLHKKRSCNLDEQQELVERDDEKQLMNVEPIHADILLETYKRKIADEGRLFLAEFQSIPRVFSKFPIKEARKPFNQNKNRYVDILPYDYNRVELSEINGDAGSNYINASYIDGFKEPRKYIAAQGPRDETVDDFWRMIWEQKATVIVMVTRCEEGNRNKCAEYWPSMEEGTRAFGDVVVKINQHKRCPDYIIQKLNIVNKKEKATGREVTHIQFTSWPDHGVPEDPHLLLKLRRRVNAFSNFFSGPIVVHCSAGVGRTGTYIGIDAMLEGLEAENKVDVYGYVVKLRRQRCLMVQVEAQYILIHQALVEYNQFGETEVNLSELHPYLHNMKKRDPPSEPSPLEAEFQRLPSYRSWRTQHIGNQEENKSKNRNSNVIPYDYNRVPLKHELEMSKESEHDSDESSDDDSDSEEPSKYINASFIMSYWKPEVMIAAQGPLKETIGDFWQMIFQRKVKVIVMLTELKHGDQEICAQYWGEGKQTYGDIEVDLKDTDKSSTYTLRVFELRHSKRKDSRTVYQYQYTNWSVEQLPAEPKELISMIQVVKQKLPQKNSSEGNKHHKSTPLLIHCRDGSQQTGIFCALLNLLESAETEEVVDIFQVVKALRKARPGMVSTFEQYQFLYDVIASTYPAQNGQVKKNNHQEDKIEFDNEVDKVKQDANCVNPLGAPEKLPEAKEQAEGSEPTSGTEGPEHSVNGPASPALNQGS
As to conditions: pH 5.5.

`O=C(O)C(=O)Nc1sc2c(c1C(=O)O)CCOC2` [Example 2-OTPA, 2-(Oxalyl-amino)-4,7-dihydro-thieno[2,3-c]pyran-3-carboxylic acid]: the inhibitory constant (Ki) (usually the dissociation constant of the complex between target and ligand, obtained from inhibition or displacement) on PTP1B was 15 µM and 63 µM; on PTPβ, 12 µM and 17 µM.

On to `O=C(O)C(=O)Nc1sc2c(c1C(=O)O)CCNC2` [Example 2-OTPyA, 2-(Oxalyl-amino)-4,5,6,7-tetrahydro-thieno[2,3-c]pyridine-3-carboxylic acid], for which, at CD45, the “fold decrease of potency against CD45” value is listed as 2 fold. The “fold increase of affinity for PTP1B” value on PTP1B (pH 5.5) is “about 20 fold”.
